Some of the results follow.

The experiment concerns A. baumannii ATCC 17978. Put plainly: relative growth (fraction of control); higher = less inhibition. To be noted: 50 µM.
In turn, `C[C@@H]1CN([C@H](C)CO)S(=O)(=O)c2ccc(C#Cc3cccc(F)c3)cc2O[C@H]1CN(C)S(=O)(=O)c1ccccc1F` had a relative growth of 1.12. Turning to `O=C(C[C@H]1CC[C@H]2[C@@H](COC[C@@H](O)CN2S(=O)(=O)c2ccc(Cl)cc2)O1)NCCN1CCCC1`, the relative growth is 1.08. The molecule `O=C(CN1CCOCC1)NCC[C@H]1CC[C@@H](NC(=O)Cc2ccccn2)[C@@H](CO)O1` gave a relative growth of 1.04. Then `C[C@H](CO)N1C[C@H](C)[C@@H](CN(C)C(=O)Nc2ccc3c(c2)OCO3)Oc2cc(C#Cc3cccnc3)ccc2S1(=O)=O`, with 1.02; and `C=CC[n+]1ccccc1/C=N/O`, with 1.02. Molecule `C[C@H]1CN([C@@H](C)CO)S(=O)(=O)c2ccc(C#CCN(C)C)cc2O[C@@H]1CN(C)C(=O)Nc1ccccc1F` came in with a relative growth of 1.03.

On to `CCN(Cc1ccncc1)C(=O)C(CO)c1ccccc1` (stereo not given), for which the relative growth was 1.22. In the case of `NNC(=O)c1cccc(C(=O)NO)c1`, the relative growth is 0.821.

Take `Cc1ccc(S(=O)(=O)N2CCN(CC(=O)N/N=C/c3ccccn3)CC2)cc1`: the relative growth was found to be 0.707. In the case of `COc1cccc(S(=O)(=O)N[C@@H]2C=C[C@@H](CC(=O)NC3CCC3)O[C@@H]2CO)c1`, the relative growth is 1.07. The result for `NNC(=O)CS(=O)(=O)c1ccc(C(F)(F)F)cn1` reads 0.931; that for `CS(=O)(=O)N1CCCCC1`, 1.12.

In the case of `COc1ccc2c3c(ccc2c1)-c1[nH]c2ccccc2c1CC3`, the relative growth stood at 0.971. Take `COc1cccc(-c2ccc3c(c2)O[C@H](CN(C)Cc2cncnc2)[C@@H](C)CN([C@H](C)CO)S3(=O)=O)c1`: the relative growth worked out at 0.913. Take `COc1ccc(S(=O)(=O)N2C[C@H](O)COC[C@@H]3O[C@@H](CC(=O)NCc4ccc(Cl)c(Cl)c4)CC[C@H]32)cc1`: the relative growth was 0.791. Then `Cc1nnc(NCCc2ccccc2)n(N)c1=O`, with 0.885; and `Cc1ncc([N+](=O)[O-])n1CCO`, with 0.917. `C[C@@H]1CN([C@@H](C)CO)S(=O)(=O)c2ccc(C#Cc3ccncc3)cc2O[C@@H]1CN(C)S(=O)(=O)c1ccc(F)cc1` returned a relative growth of 1.04.

As for `CN(C)c1ccsc1C(=O)NN`, the relative growth is 0.871. Then `C[C@@H]1CN([C@@H](C)CO)C(=O)c2cc(C#CC3(O)CCCC3)cnc2O[C@@H]1CN(C)S(=O)(=O)c1ccc(F)cc1`, with 0.965; and `CO[C@@H]1CN(C)C(=O)c2ccc(NC(=O)C3CC3)cc2OC[C@@H](C)N(C(=O)CN2CCOCC2)C[C@@H]1C`, with 1.01; and `CC/C(=C\c1ccccc1)C(=O)O`, with 1.02. `Cl.Cl.Fc1ccc(C(c2ccc(F)cc2)N2CCN(C/C=C/c3ccccc3)CC2)cc1` had a relative growth of 1.13.

Regarding `CC(C)(CO)NC(=S)NC[C@H]1CCCO1`, the relative growth amounted to 1.16. The result for `CC(=O)NCCCC[C@@H]1NC(=O)[C@@H]2C[C@H](C(=O)NCCCCCN)[C@H](c3ccc(O)cc3)N2C1=O` reads 1.05; that for `COc1ccc(COC[C@]23N=C4SCc5ccccc5CN4[C@H](c4ccccc4O2)[C@H]3COC(=O)NCCCCCC(=O)NO)cc1`, 0.89. Then `COc1cccc(-c2cn(CC[C@@H]3CC[C@@H](NS(=O)(=O)c4ccccc4Cl)[C@H](CO)O3)nn2)c1`, with 0.868; and `COc1cccc(S(=O)(=O)Nc2ccc3c(c2)[C@H]2C[C@@H](CC(=O)NCC(F)(F)F)O[C@@H](CO)[C@H]2O3)c1`, with 1.15; and `O=C1CN(c2ccccc2)C(=O)N1`, with 0.952.

Regarding `COCC#Cc1ccc2c(c1)O[C@H](CN(C)C(=O)c1ccccc1F)[C@@H](C)CN([C@@H](C)CO)S2(=O)=O`, the relative growth is 0.984.

The molecule `CC(C)C#Cc1ccc2c(c1)O[C@H](CN(C)C(=O)Cc1ccccn1)[C@H](C)CN([C@H](C)CO)S2(=O)=O` showed a relative growth of 0.99.

Take `Cc1sc(/N=C/c2ccc(Cl)c(Cl)c2)c(C#N)c1C`: the relative growth came to 0.925.

`Cl.Nc1ccc(/N=N/c2ccccc2)c(N)n1` yielded a relative growth of 0.958. The molecule `CCC(=O)N[C@@H]1C=C[C@@H](CC(=O)OC)O[C@H]1CO` displayed a relative growth of 0.962. On to `COc1ccc2[nH]cc(CCNC(C)=O)c2c1`, for which the relative growth was found to be 0.897. The result for `O=C([O-])c1ccccc1O.[Na+]` reads 0.995; that for `OCC(O)[C@@H](O)CO` (stereo not given in full), 0.9; that for `CC(C)NC(=O)[C@@]1(C)c2ccccc2C(=O)N(Cc2cc(C(F)(F)F)cc(C(F)(F)F)c2)[C@H]1c1ccc(CO)cc1`, 0.807. The result for `Cn1cnc(S(=O)(=O)N2C[C@@H](O)COC[C@@H]3O[C@H](CC(=O)NCc4ccc(F)cc4)CC[C@H]32)c1` reads 1.05; that for `C=CCC[C@H](Cc1ccc(F)cc1)C(=O)OC[C@H](Cc1c[nH]c2ccccc12)NC(=O)[C@@H](CC=C)CC(=O)N[C@H](CO)Cc1ccccc1`, 0.879; that for `C[C@H](O)[C@H](O)[C@@H](O)[C@@H](O)/C=N/NC(=O)CCCCCC(=O)NO`, 0.99. Then `CO[C@H]1CN(C)C(=O)c2cc(NS(C)(=O)=O)ccc2OC[C@@H](C)N(C(=O)CN(C)C)C[C@H]1C`, with 1.02.

With `C[C@@H]1CN([C@H](C)CO)C(=O)CCCn2cc(nn2)CO[C@H]1CN(C)C(=O)Nc1cccc2ccccc12`, the relative growth stood at 1.02. `COCCN1C[C@H](C(=O)O)CC1=O` displayed a relative growth of 1.04. As for `CC(=O)N[C@@H](Cc1ccccc1)C(=O)O`, the relative growth was determined as 0.844. The result for `NCCN1CCO[C@H](c2ccccc2)C1` reads 1.04; that for `CC(C)C1=CC2=CC[C@H]3[C@](C)(CO)CCC[C@]3(C)[C@@H]2CC1`, 0.968; that for `Cc1ccc(S(=O)(=O)N[C@@H]2CC[C@H](CC(=O)NCc3ccc(Cl)c(Cl)c3)O[C@H]2CO)cc1`, 1.14. In the case of `O=C1O[C@H](c2ccccc2)[C@H](c2ccccc2)N2[C@H]1[C@@H](C(=O)N1CCCCCCC1)[C@]1(C(=O)Nc3ccc(C#CC4=CCCCC4)cc31)[C@H]2c1ccc(O)cc1`, the relative growth was 1.02. For the molecule `O=C(C[C@H]1CC[C@H]2[C@@H](COC[C@@H](O)CN2C(=O)c2ccccc2F)O1)N1CCN(c2ccccc2)CC1`, the relative growth was determined as 0.932. Then `O=C(C[C@@H]1CC[C@@H]2[C@H](COC[C@H](O)CN2S(=O)(=O)c2ccc(Oc3ccccc3)cc2)O1)NCCN1CCCCC1`, with 1.09; and `CN(C)c1ccc(C(=C2C=CC(=[N+](C)C)C=C2)c2ccc(N(C)C)cc2)cc1.[Cl-]`, with 4.28; and `COC(=O)/C=C1\N[C@H]2CCCC[C@@H]2NC1=O`, with 0.939. `CN(C)Cc1c(C(=O)N/N=C/c2ccncc2)nnn1-c1nonc1N` registered a relative growth of 1.02. Then `C[C@@H]1CN([C@H](C)CO)S(=O)(=O)c2ccc(C#Cc3ccc(F)cc3)cc2O[C@@H]1CN(C)S(=O)(=O)c1ccc(F)cc1`, with 1.2; and `CN(CCOc1ccc(CC2SC(=O)NC2=O)cc1)c1ccccn1.O=C(O)/C=C\C(=O)O` (stereo not given), with 1.3.

`COc1ccccc1CN1C(=O)c2ccccc2[C@](Cc2ccccc2I)(C(=O)NC2CC2)[C@@H]1c1ccc(CO)cc1` gave a relative growth of 0.779. The result for `O=C(Nc1ccccc1)N1c2ccccc2CCc2ccccc21` reads 1.01. As to `O=C(C[C@@H]1CC[C@@H]2[C@H](COC[C@@H](O)CN2C(=O)Nc2cccc(Cl)c2)O1)NCCCN1CCOCC1`, the relative growth is 0.903. Molecule `Cc1ccc(-c2ccc(OC(=O)c3ccccc3F)cc2)cc1` showed a relative growth of 1.11. For `O=C(C[C@@H]1C[C@H]2c3cc(NC(=O)c4ccc5c(c4)OCO5)ccc3O[C@H]2[C@H](CO)O1)NCCc1ccccc1`, the relative growth worked out at 1.15. The result for `CCCn1c(N)nc2c1c(=O)n(C)c(=O)n2C` reads 0.96. Molecule `COc1cccc(-c2ccc3c(c2)O[C@H](CN(C)C(=O)C2CC2)[C@H](C)CN([C@@H](C)CO)S3(=O)=O)c1` returned a relative growth of 0.81. The molecule `O=C(N[C@H]1CC=CC[C@H](CC(=O)N(CCO)Cc2ccccc2)C(=O)NCC(c2ccccc2)OC1=O)OCC1c2ccccc2-c2ccccc21` (stereo not given in full) showed a relative growth of 1.16.

As for `O=c1[nH]/c(=C/c2ccco2)c(=O)[nH]/c1=C\c1ccco1`, the relative growth was determined as 0.824. `Cc1c(N2CCCC2)cc2c(c1-n1cccc1)C(C)(C)CC2(C)C` registered a relative growth of 0.99.

As to `NCC[C@@H]1CC[C@@H](NC(=O)C2CCCCC2)[C@@H](CO)O1`, the relative growth turned out to be 1.01. `CO[C@H](CN(C)S(=O)(=O)c1cccc(Cl)c1)[C@@H](C)CN([C@@H](C)CO)S(=O)(=O)c1cccc(Cl)c1`: the relative growth was found to be 0.895. The result for `Fc1ccc(-c2nc3c4ccccc4c4ccccc4c3[nH]2)cc1` reads 1.08; that for `O=C(C[C@@H]1CC[C@@H](NS(=O)(=O)c2ccccc2)[C@H](CO)O1)NCc1ccncn1`, 1.02. On to `Br.CN1CCC[C@@H]1Cc1c[nH]c2ccc(CCS(=O)(=O)c3ccccc3)cc12`, for which the relative growth stood at 1.07.

For `C=CCC[C@H](Cc1ccc(F)cc1)C(=O)OC[C@H]1CCCN1C(=O)[C@H](CC=C)CC(=O)N(CCO)Cc1ccccc1`, the relative growth amounted to 1.12. The result for `C[C@H]1CN([C@@H](C)CO)S(=O)(=O)c2ccc(C#Cc3ccncc3)cc2O[C@H]1CN(C)C(=O)C1CCC1` reads 1.01. The result for `O=C(C[C@@H]1CC[C@H]2NC[C@H](O)COC[C@@H]2O1)NCCN1CCCC1` reads 0.993.

In turn, `CCCc1cc(=O)nc(SCC(N)=O)[nH]1` had a relative growth of 0.864. `O=C(OCc1ccco1)c1ccc(-c2ccc(Cl)cc2)s1` showed a relative growth of 0.964. The result for `Cn1cnc(S(=O)(=O)N2C[C@@H](O)COC[C@@H]3O[C@H](CC(=O)N4CCN(c5ccccc5)CC4)CC[C@H]32)c1` reads 1.07.

For `O=C(C[C@H]1C=C[C@H](NC(=O)c2ccncc2)[C@@H](CO)O1)NCc1ccncn1`, the relative growth was determined as 1.17. As to `CCC[C@H](NC(=O)[C@@H]1[C@H]2CCC[C@H]2CN1C(=O)[C@@H](NC(=O)[C@@H](NC(=O)c1cnccn1)C1CCCCC1)C(C)(C)C)C(=O)C(=O)NC1CC1`, the relative growth stood at 1.4. The result for `O=c1c(O[C@@H]2O[C@H](CO)[C@@H](O)[C@H](O)[C@@H]2O[C@H]2OC[C@](O)(CO)[C@H]2O)c(-c2ccc(O)c(O)c2)oc2cc(O)cc(O)c12` reads 1.05. Then `CCc1cccc2c3c([nH]c12)C(CC)(CC(=O)O)OCC3` (stereo not given), with 1.19; and `Cc1noc(NS(=O)(=O)c2ccc(N)cc2)c1C`, with 0.965. Then `NC(CSSCC(N)C(=O)O)C(=O)O` (stereo not given), with 0.837; and `OCCNC(=S)c1ccccc1`, with 1.15.

`CCCCC(=O)O[C@]1(C(=O)CO)CC[C@H]2[C@@H]3CCC4=CC(=O)CC[C@]4(C)[C@H]3[C@@H](O)C[C@@]21C` displayed a relative growth of 1.08.
